According to US8329644B2, “Lantibiotic-based compounds having antimicrobial activity” (Novacta Biosystems Limited, priority 2007, dated 2012):

Experiment: Stability in simulated gastric fluid (SGF)
Format: in vitro ADME
Details: 37° C., analytical HPLC
Method: Nisin, mersacidin, compound I and compound III were tested for their susceptibility towards enzymatic digestion in the stomach. Nisin, mersacidin and compound III were tested for their susceptibility towards enzymatic digestion in the intestine. The SGF and SIF were based on the standard USP solutions for simulated gastric and simulated intestinal fluids and their activity confirmed against Bovine Serum Albumin (Hilger et al, Clin. Exp. Immunol. 2001, 123, 387-94). The compounds were incubated in SGF or SIF at 37° C. and their concentrations quantified by analytical HPLC (UV detection at 210 nm). The potential degradation of each compound was also monitored qualitatively by measuring in vitro antibacterial activity against Micrococcus luteus.

For mersacidin [reference compound], the “degradation in Simulated Gastric Fluid” value was “did not show appreciable degradation”.
